Biological target: human H1R (Homo sapiens, UniProt P35367)
Test: [3H]-mepyramine competition binding (radioligand displacement, 4 h) on HEK293T cell homogenates
Parameters: expressed in transfected cells; host or cells: HEK293T cells, transient transfection with pcDEF3, used as cell homogenate
Conditions: [3H]mepyramine displacement curves after 4 h incubation, HEK293T cell homogenate expressing H1R, 25 °C; mean and SEM, N ≥ 3
Description: Protein content of membrane homogenates was determined using a BCA protein assay. […] Membrane preparation, termination of the binding reaction and quantifying radioactivity as described here, were performed for all binding experiments.Total binding and nonspecific binding (i.e., in the presence of mianserin) was analyzed by nonlinear regression using eqs 1 (nonspecific binding) and 2 (total binding).
These values were converted to Ki values using the Cheng–Prusoff equation.[24]

Amino acid sequences for entries named in this document (tags omitted). A change or cut given only in a name is not applied to a line headed by its entry.
UniProt P35367, whole entry: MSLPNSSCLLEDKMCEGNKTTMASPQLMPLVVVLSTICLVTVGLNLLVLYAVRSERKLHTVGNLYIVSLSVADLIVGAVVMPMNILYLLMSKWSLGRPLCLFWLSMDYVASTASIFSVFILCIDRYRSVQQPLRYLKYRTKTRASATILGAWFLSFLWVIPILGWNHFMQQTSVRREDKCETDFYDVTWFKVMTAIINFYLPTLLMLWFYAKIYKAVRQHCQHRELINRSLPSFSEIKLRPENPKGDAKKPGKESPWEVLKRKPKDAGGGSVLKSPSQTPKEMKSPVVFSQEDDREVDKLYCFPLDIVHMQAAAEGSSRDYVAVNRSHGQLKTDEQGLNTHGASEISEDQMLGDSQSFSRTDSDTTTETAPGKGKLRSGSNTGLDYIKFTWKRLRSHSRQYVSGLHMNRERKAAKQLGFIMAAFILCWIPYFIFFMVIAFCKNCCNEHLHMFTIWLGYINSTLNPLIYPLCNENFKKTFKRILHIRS

## CN1CCC(Oc2ccccc2Cc2ccccc2)CC1 [compound 1, 4-(2-benzylphenoxy)-1-methylpiperidine]
  pKi: 8.6 ± 0.1

From publication PMC11726634, “Probing the Histamine H1 Receptor Binding Site to Explore Ligand Binding Kinetics” (Journal of Medicinal Chemistry, 2024)
